# Values of other authors, collected in patent publication US20260201061A1, “COMBINATION FOR TREATMENT AND PREVENTION OF CANCER” (Hummingbird Bioscience Pte. Ltd., priority 2022, published 2026).
# System: LIM1215 cells
# Conditions: cells express normal levels of EGFR
substance,measurement,value
cetuximab: anti-EGFR antibody formed by the polypeptides of SEQ ID NO:99 and SEQ ID NO:100,sensitivity of LIM1215 cells,sensitive to cetuximab
